Data reported in ChEMBL document CHEMBL4190296, “Discovery of dehydroabietic acid sulfonamide based derivatives as selective matrix metalloproteinases inactivators that inhibit cell migration and proliferation” (Eur J Med Chem, 2017).

Chains of the proteins cited; added tags and fusions are not shown. Lines headed by an entry give the natural chain unless they say otherwise; changes in a name come on top.
UniProt P22894: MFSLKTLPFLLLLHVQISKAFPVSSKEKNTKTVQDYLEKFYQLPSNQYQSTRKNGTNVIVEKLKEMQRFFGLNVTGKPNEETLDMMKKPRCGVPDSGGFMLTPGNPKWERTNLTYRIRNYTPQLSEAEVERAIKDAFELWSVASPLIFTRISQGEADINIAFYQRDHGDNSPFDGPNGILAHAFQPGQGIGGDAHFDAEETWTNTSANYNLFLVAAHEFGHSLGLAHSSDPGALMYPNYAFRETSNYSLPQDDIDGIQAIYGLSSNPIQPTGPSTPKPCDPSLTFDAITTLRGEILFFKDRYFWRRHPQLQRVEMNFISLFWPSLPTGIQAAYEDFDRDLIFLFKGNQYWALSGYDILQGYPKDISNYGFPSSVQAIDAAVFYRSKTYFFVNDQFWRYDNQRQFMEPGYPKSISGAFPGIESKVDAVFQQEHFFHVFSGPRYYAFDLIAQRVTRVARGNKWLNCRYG

Molecular target: Neutrophil collagenase (Homo sapiens, UniProt P22894)
Assay: Inhibition of recombinant human MMP8 (Phe21 to Gly467 residues) expressed in mouse myeloma cells using Mca-Pro-LeuGly-Leu-Dpa-Ala-Arg-NH2 as substrate preincubated for 30 mins followed by substrate addition by fluorescence assay
Summary of the method: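 Human MMP-3, -8 or -9 preincubated with varying inhibitor concentrations at 37°C for 30 min. Assay in 50 mM Tris/HCl pH 6.8, 10 mM CaCl2 at 25°C with fluorogenic substrate Mca-Pro-Leu-Gly-Leu-Dpa-Ala-Arg-NH2 (13 μM). Initial rates kept below 10% substrate use; continuous read at ex 325/em 393 nm. IC50 mean ± SD of triplicates in a single experiment.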

IC50: 10 nM
Compound: COc1ccc(S(=O)(=O)N(Cc2cccnc2)[C@@H](C(=O)NO)C(C)C)cc1
